Assay outcomes deposited in PubChem by National Center for Advancing Translational Sciences (NCATS).
G9a block = inhibitors of human histone lysine methyltransferase G9a; Potency, µM (series often up to 102 µM), hits mostly inhibitors; Q96KQ7; G9a H3K9 monomethylation, AlphaScreen, 2 h; 350,000 compounds, 8.8% hits; AID 504332; also: nearly all actives have a fitted effect of over 75% in size
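Quantitative HTS format: methyltransferase activity on a biotin-tagged H3K9 peptide is measured by AlphaScreen, using a rabbit anti-monomethyl-H3K9 antibody with streptavidin donor and anti-IgG acceptor beads. Final levels are 20 nM enzyme, 500 nM peptide, 20 uM SAM; 2 h RT.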
Lamin A splicing = changes lamin A minigene splicing in HeLa cells; 200,000 compounds, 0.01% hits; AID 1487; Potency, µM (highest dose often 46.1 µM), usual class: inhibitors; HeLa LMNA splicing GFP/RFP minigene ratio, 48 h; active = well fitted inhibition curve with a large enough effect in the signal ratio, with a control signal flat, not every such curve was filed as active; inconclusive = small, poorly fitted or top-dose-only effect, or effect the other way, or a change in a side signal; the % refers to the signal ratio
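Read-out is the ratio of GFP to DsRed2 object intensity, acquired by 488 nm laser-scanning cytometry on HeLa lamin A-EGFP minigene reporter cells. Compound incubation 48 hrs at 37 °C in Opti-MEM with 2% FBS; DMSO 0.5% final.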
KDM4E inh = inhibitors of human JMJD2E histone demethylase; AID 2147; B2RXH2; JMJD2E catalytic domain, FDH-coupled NADH fluorescence (FDH is formaldehyde dehydrogenase); Potency, µM (highest dose often 57.1 µM), usual class: inhibitors; 230,000 compounds, 1.6% hits; active = well fitted inhibition curve with a large enough effect, not every such curve was filed as active; inconclusive = small, poorly fitted or top-dose-only effect, or another doubt; inactive = no such curve, though single readings can be large or run the other way; also: nearly all actives have a fitted effect of over 50% in size
Sfp inh = inhibitors of Bacillus subtilis Sfp phosphopantetheinyl transferase; AID 1490; Potency, µM, usual class: inhibitors; Biochemical Sfp PPTase activity, qHTS; Q9F4F7; 310,000 compounds, 3.5% hits;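 also: the enzyme is Sfp with the accession as filed and its product quenches rhodamine fluorescence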
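Sfp 15 nM + cpd, 15 min RT; start w/ rhodamine-CoA 5 uM, BHQ-2-YbbR 12.5 uM (final); 50 mM Hepes pH 7.6, 10 mM MgCl2, 0.01% NP-40, 0.01% BSA; read 525/598 nm at 0 and 30 min.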
miR-21 FLuc = raises the signal of a miR-21 reporter; HeLa miR-21 FLuc reporter, luciferase, 48 h; Potency, µM (top dose mostly 38.3 µM); AID 2288; 340,000 tested, under 10 active; active = well fitted rising curve with a large enough effect; inconclusive = small, poorly fitted or top-dose-only effect; inactive = no such curve, though single readings can be large or run the other way;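 note: miR-21 action dims this reporter so a rising signal means less miR-21 action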
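Compounds were titrated across several concentrations (up to approximately 40 uM) and incubated 48 hours with HeLa miR-21-FLuc reporter cells (miR-21 target sequence downstream of FLuc, endogenous miR-21). Readout was firefly luciferase luminescence after lytic detection reagent.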
ALDH1A1 block = inhibitors of human aldehyde dehydrogenase 1A1. Purified ALDH1A1, NADH fluorescence, propionaldehyde substrate. Potency, µM (top dose mostly 75.3 µM), most hits filed as inhibitors. 220,000 compounds, 7.3% hits. AID 1030; active = well fitted inhibition curve with a large enough effect, not every such curve was filed as active; inconclusive = small, poorly fitted or top-dose-only effect, or another doubt; inactive = no such curve, though single readings can be large or run the other way
Numbers stand for hits; - = inactive; ? = inconclusive; . = not tested or not shown; [ ] = dose if it differs, or a comment. Most compounds without a hit are left out; they make up all but 13% or so of the library. Unless noted, calls follow the shape of the dose curve; as a rule, active = well fitted curve in the direction sought with a large enough effect; inconclusive = small, poorly fitted or top-dose-only effect, or another doubt; inactive = no such curve, though single readings can be large; an effect the other way counts as inactive or inconclusive.

SMILES | G9a block | Lamin A splicing | KDM4E inh | Sfp inh | miR-21 FLuc | ALDH1A1 block
CCOC(=O)c1ccc(OC(=O)c2cn(-c3cccc(OC)c3)c(=O)c3ccccc23)cc1 | - | ? | . | . | - | .
Fc1cccc(-c2csc(-c3ccno3)n2)c1 | . | . | ? | ? | - | 22µM
Clc1ccc(-c2csc(-c3ccno3)n2)cc1 | - | . | - | - | - | .
Cc1ccc(CNC(=O)CN(c2ccc(C(C)C)cc2)S(=O)(=O)c2c(C)n[nH]c2C)cc1 | - | . | . | . | - | .
c1csc(C2C3=C(Nc4ncnn42)c2ccccc2OC3)c1 (stereo not drawn) | ? | ? | ? | 50µM | - | ?
COc1ccc(NC(=S)Nc2ccccc2)cc1 | - | . | - | - | - | -[13.5 µM]
COc1ccc(NC(=S)Nc2ccc(N)c([N+](=O)[O-])c2)cc1 | ? | - | - | ? | - | 25µM
Oc1ccc(NC(=S)Nc2ccccc2)cc1 | 50µM | ? | - | ? | - | -
COc1cccc(NC(=S)Nc2ccc(O)cc2)c1 | 8.9µM | . | - | 20µM | - | .
Nc1ccc(NC(=S)Nc2ccccc2)cc1 | -[12.7 µM] | - | - | - | - | -
COc1ccc(CCC(=O)Nc2ccc(C)c([N+](=O)[O-])c2)cc1 | 10µM | - | - | ? | - | 10µM
Cc1oc2c(C)c3oc(=O)c(CCC(=O)N4CCCCC4)c(C)c3cc2c1C | - | . | . | . | - | .
COc1cccc(NC(=S)N/N=C2/CCCCc3ccccc32)c1 | 40µM | ? | - | - | - | ?
COc1ccc(NC(=S)Nc2ccc3nccnc3c2)cc1 | ? | - | ? | 45µM | - | ?
COc1ccc(NC(=S)Nc2ccc3snnc3c2)cc1 | ? | - | - | - | - | ?
CCc1noc(C)c1C(=O)NNC(=O)COc1ccc(Br)cc1 | - | . | . | - | - | .
COc1cccc(/C=C/C(=O)c2ccc(C)c([N+](=O)[O-])c2)c1 | ? | ? | - | - | - | 7.1µM
COc1cc(O)c(C(=O)/C=C/c2ccc(OC)c(O)c2)c(OC)c1 | -[2.33 µM] | . | ? | - | . | 14µM
COc1cc(/C=C/C(=O)c2ccc(C)c([N+](=O)[O-])c2)cc(OC)c1O | 45µM | ? | - | - | ? | -
COc1ccc(/C=C/C(=O)c2ccc(C)c([N+](=O)[O-])c2)cc1O | 45µM | ? | - | 79µM | - | 22µM
CN(CCOc1ccc(Br)cc1)CC(O)c1ccccc1 (stereo not drawn) | 13µM | . | . | ? | - | .
CN(CCOc1ccc(Cl)cc1)CC(O)c1ccccc1 (stereo not drawn) | 3.5µM | . | . | - | - | .
CC(OCC(O)CN(C)CCOc1ccccc1)c1ccc(Cl)cc1 (stereo not drawn) | ? | ? | ? | - | - | -
CN(CCOc1ccccc1)CC(O)COc1ccccc1 (stereo not drawn) | ? | . | . | - | - | .
CN(CCOc1ccc(Br)cc1)CC(O)COc1ccc(C#N)cc1 (stereo not drawn) | - | . | . | - | - | .
SMILES | G9a block | Lamin A splicing | KDM4E inh | Sfp inh | miR-21 FLuc | ALDH1A1 block
CN(CCOc1ccccc1)CC(O)COCc1ccccc1F (stereo not drawn) | 10µM | . | . | - | - | .
S=C(Nc1ccc(Cl)cc1)NC1CCN(Cc2ccccc2)CC1 | - | ? | - | - | - | 4µM
CCc1ccc(NC(=S)NC2CCN(Cc3ccccc3)CC2)cc1 | - | ? | - | - | - | 20µM
S=C(Nc1ccccc1)NC1CCN(Cc2ccccc2)CC1 | -[0.501 µM] | . | - | - | - | 14µM
Cc1ccccc1NC(=S)NC1CCN(Cc2ccccc2)CC1 | - | - | - | - | - | ?
COc1ccc(S(=O)(=O)NC2CCN(Cc3ccccc3)CC2)cc1NC(C)=O | -[12.7 µM] | . | . | . | . | .
COc1ccc(NC(=S)NC2CCN(Cc3ccccc3)CC2)cc1OC | - | - | - | - | - | -
COc1ccc(C)cc1NC(=O)NC1CCN(Cc2ccccc2)CC1 | 14µM | - | - | - | - | -
Cc1cccc(NC(=O)CN2C(=O)c3ccccc3Sc3ncccc32)c1C | - | . | . | . | - | .
Fc1ccc(Nc2ccnc(-c3ccccc3C(F)(F)F)n2)cc1 | -[0.501 µM] | - | . | - | . | -
Cc1ccc(C(=O)NNC(=O)CSc2nnc(C3CC3)n2C)cc1 | ? | . | . | - | - | .
CCCCCCCC1Cc2ccccc2C(C(C(=O)OC)C(=O)OC)N1C(=O)OC (stereo not drawn) | . | -[9.22 µM] | - | - | . | -
O=c1c2ncn([C@@H]3O[C@@H]4COP(=O)(O)O[C@H]4[C@H]3O)c2nc2[nH]c(-c3ccccc3)cn12 | . | . | . | - | . | .
COc1ccc(CCNC(=S)NC2CCN(Cc3ccccc3)CC2)cc1 | 25µM | . | - | ? | - | ?
CC1CCN(CCNC(=S)Nc2ccc(Cl)cc2)CC1 | 45µM | . | - | - | - | -
S=C(NCCc1ccccc1)NC1CCC(NC(=S)NCCc2ccccc2)CC1 (stereo not drawn) | - | - | - | - | - | -
CCC(C)c1ccc(NC(=S)NC2CCN(Cc3ccccc3)CC2)cc1 (stereo not drawn) | - | - | - | - | - | 7.1µM
O=C(CSc1nc(=O)n2ccccc2n1)NCc1ccccc1 | - | . | . | . | . | .
CCCOc1ccc(CNC(=O)C(NS(=O)(=O)c2cccs2)C(C)C)cc1 (stereo not drawn) | -[12.7 µM] | - | . | . | - | .
N#CC1=C(C2CC2)CC(c2ccccc2)C(C#N)=C1N (stereo not drawn) | 50µM | - | ? | - | - | ?
Cc1cccc(CN2CCC(Oc3ccc(C(=O)N4CCCC4)cc3)CC2)n1 | . | . | . | - | - | .
Cc1ccnn1C(C)C(=O)O (stereo not drawn) | 50µM | ? | - | - | - | -
CN1C(=O)C(=C2CCCCCC2)SC1=S | 45µM | - | - | 56µM | - | ?
CC(=O)NC(Nc1c(C)n(C)n(-c2ccccc2)c1=O)C(Cl)(Cl)Cl (stereo not drawn) | ? | - | - | - | - | -
CCS(=O)(=O)n1nc(-c2ccccc2)nc1SC | - | - | - | - | - | -
SMILES | G9a block | Lamin A splicing | KDM4E inh | Sfp inh | miR-21 FLuc | ALDH1A1 block
CCS(=O)(=O)n1nc(-c2ccc(Cl)cc2)nc1SCc1ccccc1 | 7.1µM | ? | - | - | - | -
Cc1nn2c(=S)[nH]nc2[nH]c1=O | 7.1µM | - | ? | 13µM | - | ?
Cc1ccsc1C(=O)N1CCCC(CO)(Cc2ccccc2F)C1 (stereo not drawn) | - | . | . | - | - | .
CCOC(=O)c1c(NC(=S)Nc2ccccc2)sc2c1CCCCC2 | ? | ? | - | ? | - | ?
CCCN1CCc2c(sc(NC(=O)CCS(=O)(=O)c3ccccc3)c2C(=O)OC)C1 | 40µM | . | . | - | - | .
C=CCNC(=S)Nc1sc2c(c1C(=O)OCC)CCN(C(=O)OCC)C2 | 13µM | - | - | ? | - | 20µM
CCOC(=O)c1c(NC(=S)Nc2ccccc2)sc2c1CCN(CC)C2 | 35µM | - | ? | ? | - | ?
CCOC(=O)c1c(NC(=S)Nc2cccc(C)c2)sc2c1CC(C)(C)SC2 | ? | - | - | ? | - | 4µM
CN(C)c1ccc(CNC(=O)c2cc3cc(S(=O)(=O)N4CCCCC4)ccc3n2C)cc1 | ? | - | . | . | - | .
